Source: article PMC8072975 (Pharmaceutics, 2021)

What was measured:
[1] = in vivo; cited from earlier work
[2] = human plasma, peak area of A2-2, mean ± SD, n = 3; for Stability 4 °C, 36 h (%): short-term, relative recovery vs freshly prepared sample, HPLC-UV 220 nm; for Stability Freeze-Thaw (%): three freeze-thaw cycles at −70 °C, HPLC-UV
[3] = human, in vivo, iv, 6 mg/kg
[4] = in vivo; cited from earlier work; remark: listed apart in the source

Substance: teicoplanin
- Half-life [1]: approximately 100 h
- Stability 4 °C, 36 h (%) ([2]; teicoplanin high conc. 500.0 mg/L (mixture)): 103.3 ± 2.29%
- Stability 4 °C, 36 h (%) ([2]; teicoplanin low conc. 7.81 mg/L (mixture)): 106.1 ± 13.1%
- Stability Freeze-Thaw (%) ([2]; teicoplanin high conc. 500.0 mg/L): 112.4 ± 5.12%
- Stability Freeze-Thaw (%) ([2]; teicoplanin low conc. 7.81 mg/L): 111.4 ± 6.26%
- Highest plasma concentration, found at 0.5 h [3]: 47.3 to 85.4 mg/L
- Plasma concentration after the loading dose (at 24 h) ([3]; 24 h): approximately 12.0 mg/L
- Steady-state trough concentrations (Css, min) in human plasma [4]: ≥ 10000 ng/mL

Read-outs that look alike come from different tables or passages of the source.
